Source: US6555714B1, “Inhibitors of hydroxyphenylpyruvate dioxygenase and an assay for identification of inhibitors” (Hoechst Aktiengesellschaft, priority 1993, dated 2003)
Where two headings read alike, the source gives them in different places.

Chains of the proteins cited; added tags and fusions are not shown. Residues count along the entry.
UniProt A0A1D6H1G0, 1-444: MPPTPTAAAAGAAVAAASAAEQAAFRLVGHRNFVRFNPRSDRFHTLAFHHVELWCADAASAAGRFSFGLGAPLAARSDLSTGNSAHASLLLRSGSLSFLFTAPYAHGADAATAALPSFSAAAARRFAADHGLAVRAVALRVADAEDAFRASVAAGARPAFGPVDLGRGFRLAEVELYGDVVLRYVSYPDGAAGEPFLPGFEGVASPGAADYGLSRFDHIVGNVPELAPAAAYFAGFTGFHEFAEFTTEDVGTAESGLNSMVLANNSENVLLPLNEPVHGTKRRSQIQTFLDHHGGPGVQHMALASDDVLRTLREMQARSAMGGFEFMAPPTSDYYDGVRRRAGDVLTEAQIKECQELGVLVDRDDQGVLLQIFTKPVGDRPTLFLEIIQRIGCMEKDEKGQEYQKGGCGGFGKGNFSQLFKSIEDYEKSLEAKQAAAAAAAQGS

Tests used:
[1] = target: anabolic plant HPPD (p-hydroxyphenylpyruvate dioxygenase) from maize (Zea mays, UniProt A0A1D6H1G0)
Lemna gibba = assay: Growth inhibition of Lemna
Procedure: The IC50 value is the molar concentration of the inhibitor at which 50% of the enzyme activity are inhibited. The growth of Lemna was measured as described in: Schulz, A., Ort, O., Beyer, P. and Kleinig, H.; SC-0051, a 2-benzoylcyclohexane-1,3-dione bleaching herbicide, is a potent inhibitor of the enzyme p-hydroxyphenylpyruvate dioxygenase. FEBS-Letters, 1993, 318 (2), 162-166.

[2] = Table 1 of compounds of formula (I), HPPD inhibition, IC50 is a molar concentration

SMILES | IC50 [1, 2] [nM] | other results
CS(=O)(=O)c1ccc(C(=O)c2ccc(Cl)cc2Cl)c(Cl)c1 | < 10000 | IC50 ([1]; read-out: IC50 value, p-hydroxyphenylpyruvate dioxygenase inhibition, Example 6 table): > 10000 nM; Growth inhibition of Lemna (%) (Lemna gibba; 10^−4 M): 28%; Growth inhibition of Lemna (%) (Lemna gibba; 10^−5 M): 12%
CC(=O)Oc1cc(C)cc(C)c1C(=O)c1ccc(S(C)(=O)=O)cc1Cl | 300 | 
COc1cc(OC)c(C(=O)c2ccc(S(C)(=O)=O)cc2Cl)c(OC)c1 | 5700 | 
CS(=O)(=O)c1ccc(C(=O)c2cc(Cl)cc(Cl)c2O)c(Cl)c1 | 1 | 
CS(=O)(=O)c1ccc(C(=O)c2ccc(O)c(F)c2F)c(Cl)c1 | < 1 | 
CS(=O)(=O)c1ccc(C(=O)c2ccc(Cl)cc2O)c(Cl)c1 | < 1 | 
CS(=O)(=O)c1ccc(C(=O)c2cc(F)ccc2O)c(Cl)c1 | < 1 | 
CS(=O)(=O)c1ccc(C(=O)c2ccccc2O)c(Cl)c1 | < 1 | 
COc1cc(OC)c(C(=O)c2ccc(Cl)cc2Cl)c(OC)c1 | 3500 | 
COc1ccc(OC)c(C(=O)c2ccc(Cl)cc2Cl)c1 | 970 | 
CS(=O)(=O)c1ccc(C(=O)c2ccc(Cl)c(Cl)c2O)c(Cl)c1 | 1.1 | 
O=C(c1cc(O)ccc1O)c1ccc(Cl)cc1Cl | < 1 | 
Cc1cc(C(=O)c2ccc(S(C)(=O)=O)cc2Cl)c(Cl)cc1O | 920 | 
CS(=O)(=O)c1ccc(C(=O)c2ccc(O)cc2)c(Cl)c1 | 12 | 
CCCc1ccc(C(=O)c2ccc(Cl)c(Cl)c2O)cc1 | 50 | 
Cc1cc(O)c(C(=O)c2ccc(S(C)(=O)=O)cc2Cl)c(O)c1 | 180 | 

SMILES | IC50 [1, 2] [nM] | other results
CS(=O)(=O)c1ccc(C(=O)c2ccc(O)cc2F)c(Cl)c1 | 20 | 
O=C(c1ccc([N+](=O)[O-])cc1Cl)c1ccc(Cl)c(Cl)c1O | < 1 | 
CS(=O)(=O)c1ccc(C(=O)c2c(O)c(Cl)cc(Cl)c2Cl)c(Cl)c1 | 120 | 
CS(=O)(=O)c1ccc(C(=O)c2ccc(F)cc2O)c(Cl)c1 | < 10 | 
CS(=O)(=O)c1ccc(C(=O)c2ccc(F)c(F)c2O)c(Cl)c1 | < 10 | 
CS(=O)(=O)c1ccc(C(=O)c2cc(N)ccc2O)c(Cl)c1 | 40 | 
Cc1cc(C)c(C(=O)c2ccc(S(C)(=O)=O)cc2Cl)c(O)c1 | 230 | Growth inhibition of Lemna (%) (Lemna gibba; 10^−4 M): 80%; Growth inhibition of Lemna (%) (Lemna gibba; 10^−5 M): 72%; Growth inhibition of Lemna (%) (Lemna gibba; 10^−6 M): 12%
CS(=O)(=O)c1ccc(C(=O)c2ccc(O)c(Cl)c2Cl)c(Cl)c1 | 12 | 
CC(=O)Nc1ccc(O)c(C(=O)c2ccc(S(C)(=O)=O)cc2Cl)c1 | 9 | 
CS(=O)(=O)c1ccc(C(=O)c2c(O)cccc2O)c(Cl)c1 | 570 | 
Cc1ccc(C(=O)c2ccc(Cl)c(Cl)c2O)cc1 | 3500 | 
COc1cc(OC)c(C(=O)c2ccc(Cl)c(Cl)c2O)cc1OC | < 1 | 
COc1ccc(OC)c(C(=O)c2ccc(S(C)(=O)=O)cc2Cl)c1 | 240 | 
CS(=O)(=O)c1ccc(C(=O)c2ccc(C(F)(F)F)cc2[N+](=O)[O-])c(Cl)c1 | 4 | 
Cc1c(Cl)ccc(C(=O)c2ccc(S(C)(=O)=O)cc2Cl)c1Cl | 400 | 
Cc1ccc(O)c(C(=O)c2ccc(S(C)(=O)=O)cc2Cl)c1 | < 1 | 
